Tests used:
canine OS = experiment: Phase I/II type protocol of ^225Ac-labeled trastuzumab in dogs with osteosarcoma: toxicity / MTD; assay type: in vivo; settings: expected
Source text: In accordance with the inventive methods, the inventors will identify the MTD while also collecting data that will allow calculation of DLO and tumor dosimetry. […] This is because the tumor burden in dogs is generally lower than in leukemia patients, it is less rapidly accessible and therefore not likely to be as substantial a sink that removes alphaRPT from the circulation. Accordingly, the MTD in humans is likely an overestimate of the MTD in canines. The MTD in tumor-free monkeys is an underestimate for the opposite reason—there is no disease to take up alphaRPT in circulation. No study used imaging as in accordance with the inventive methods because the activity of ^225Ac was too low to image. As a result the MTD that is expressed in terms of AA cannot be related to the AD in marrow (acute DLO) and kidney (delayed DLO). Using the inventive methods the MTD is identified in tumor-bearing dogs and the imaging and PK data is collected which will relate DLO AD to measured hematologic and renal toxicity.
A phase I/II type protocol, similar to that used for human studies when the number of patients is limited will be used and is depicted in FIG. 8. Toxicity will be investigated at 2, 3 and 4 μCi/kg. Blood counts, blood urea nitrogen (BUN), creatinine and urine specific gravity (USG) will be monitored to evaluate toxicity. […] Circulating levels of free ^213Bi will be measured by counting immediately after sample collection and 5 to 24 hours later when ^225Ac is in equilibrium with its daughters. […]
The AA-based MTD will be identified and will subsequently use the PK/imaging data collected to relate dose-limiting organ AD to measured toxicity. The dose associated with a 10% DLT probability will be determined, where a DLT is defined as Grade 3 or above acute hematologic toxicity as well as renal toxicity based on Common Terminology Criteria for Adverse Events (CTCAE). […] Secondary objectives are to utilize PET imaging, collect PK data to relate dose-limiting organ (DLO) absorbed dose (AD) to measured toxicity. […]

[1] = in vivo; cited from earlier work

Substance	toxicity (canine OS; 2 μCi/kg dose level)	likelihood of encountering renal toxicity (canine OS; 3 μCi/kg) [%]	likelihood of encountering renal toxicity (canine OS; 4 μCi/kg) [%]	distribution compared with ^213Bi-Tz [1]
ATz: ^225Ac-DOTA-trastuzumab alphaRPT	minimal	10	30	–
^111In-Tz: ^111In-labeled trastuzumab, imaging and biodistribution surrogate for ^213Bi-Tz	–	–	–	identical distribution
